Data reported in PubChem BioAssay AID760 (NMMLSC, 2007).
The entries are a selection whose mix differs from that of the whole data set. Calls of active or inactive are those of the source.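 Rule for the calls: active = GTP binding activity at least 20 points away from 100%, either lowered or raised; inconclusive = signal likely due to the compound's own green fluorescence; inactive = the rest.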

Target: Ras-related protein Rab-2A (Canis lupus familiaris) (UniProt P61105)
Assay: Rab2 wt fluorescent GTP binding changes, either direction – biochemical, dog, bead-based flow cytometry, multiplex, primary screen (AID 760);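 note: 0% = beads with excess unlabeled GTP and 100% = no-compound control corrected for plate trend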
Settings: GST-Rab2 wt beads, Bodipy-GTP binding, at 10 µM

SMILES	GTP binding activity
O=P(Nc1ccccn1)(c1cccc2ccccc12)c1cccc2ccccc12	inactive: 95%
Cc1cc(SC(NC=O)C(Cl)(Cl)Cl)ncn1 (stereo not given)	inactive: 99%
Cc1cc(SC(NC(=O)c2ccccc2)C(Cl)(Cl)Cl)nc(C(C)C)n1 (stereo not given)	inactive: 100%
CCC(C)N(CC(C)C)C(=S)SC(NC(C)=O)C(Cl)(Cl)Cl (stereo not given)	inactive: 98%
COP1(=S)c2c(C)nn(CCC#N)c2N=C(c2ccc(F)cc2)N1C (stereo not given)	inactive: 98%
O=C(COc1ccccc1)OC1CN2CCC1CC2 (stereo not given)	inactive: 103%
COc1ccc(N/C(=N/P(=O)(N2CCOCC2)N2CCOCC2)N2CCOCC2)cc1	inactive: 98%
Cc1cc(=O)[nH]c(N[N+](=O)[O-])n1	inactive: 100%
Cc1c2c(nc3ccccc13)SC(C(Cl)Cl)C2 (stereo not given)	inactive: 100%
COc1ccc2nc(NP(=O)(c3ccccc3)c3ccccc3)sc2c1	inactive: 97%
ClCCSc1nnc(-c2cccnc2)o1	inactive: 100%
CC(C)NC(=O)NP(=O)(Oc1ccccc1)Oc1ccccc1	inactive: 98%
CCN(CC)C(=S)SC(NC=O)C(Cl)(Cl)Cl (stereo not given)	inactive: 95%
O=[N+]([O-])c1cc([N+](=O)[O-])c(-c2ccn[nH]2)s1	inactive: 97%
Cc1ccc2nc3c(c(C)c2c1)CC(C(Cl)Cl)S3 (stereo not given)	inactive: 98%
O=[N+]([O-])c1ccc2c(c1)nnn2O	inactive: 101%
CCOP1(=S)c2c(C)nn(CCC#N)c2N=C(c2ccc(F)cc2)N1C (stereo not given)	inactive: 96%
CCOP1(=S)c2c(C)nn(CCC#N)c2N=C(c2ccccc2F)N1C (stereo not given)	inactive: 98%
O=P(Nc1nccs1)(Oc1ccccc1)Oc1ccccc1	inactive: 99%
O=P(Nc1nccs1)(c1ccccc1)c1nc2ccccc2s1 (stereo not given)	inactive: 100%
Cc1ccc(NCCc2c([N+](=O)[O-])cc([N+](=O)[O-])cc2[N+](=O)[O-])cc1	inactive: 97%
COc1cc(C2NCCC3(OCCO3)C2(C)C)cc(OC)c1OC (stereo not given)	inactive: 93%
CCOP(=O)(Nc1cccc2ccccc12)OCC	inactive: 101%
COc1cc(C(=O)NCC2(N3CCOCC3)CCCCC2)cc(Cl)c1OC(C)C	inactive: 95%
Cc1cccc(OCC(=O)OC2CN3CCC2CC3)c1 (stereo not given)	inactive: 103%

SMILES	GTP binding activity
CC(C)/C=N\N=C(\N)N[N+](=O)[O-]	inactive: 96%
O=P1(Nc2ccccn2)COc2ccccc2OC1	inactive: 101%
Clc1n[nH]nc1-c1nn[nH][15n]1	inactive: 102%
O=P1(Nc2ncccn2)COc2ccccc2OC1	inactive: 101%
Cc1ccc(OCC(=O)OC2CN3CCC2CC3)cc1 (stereo not given)	inactive: 100%
O=P1(Nc2ccc(Br)cn2)COc2ccccc2OC1	inactive: 97%
Cc1nn(-c2ccccc2)c2c1P(=O)(N1CCOCC1)N(C)C(c1ccccc1)=N2 (stereo not given)	inactive: 101%
CC1CCC(C(C)C)C(OP(=O)(Nc2ccccn2)c2ccccc2)C1 (stereo not given)	inactive: 94%
CN(C)C1(CNC(=O)c2ccc(S(C)(=O)=O)cc2)CCCCC1	inactive: 99%
CC(=O)NC(SC(=S)N(C)C)C(Cl)(Cl)Cl (stereo not given)	inactive: 103%
C(Cc1nn[nH]n1)Cc1nn[nH]n1	inactive: 102%
O=C(OC1CN2CCC1CC2)c1cccc(Cl)c1 (stereo not given)	inactive: 103%
O=P(Nc1ccccn1)(c1ccc(Br)cc1)c1ccc(Br)cc1	inactive: 91%
CC(C)C(=O)NC(Sc1ccccc1)C(Cl)(Cl)Cl (stereo not given)	inactive: 101%
O=P(Nc1nccs1)(c1ccccc1)c1ccccc1	inactive: 102%
c1nnnn1CCn1cnnn1	inactive: 103%
CC(=O)Nc1ccc(Oc2c([N+](=O)[O-])cc([N+](=O)[O-])cc2[N+](=O)[O-])cc1	inactive: 84%
O=P1(Nc2nc3ccc(Cl)cc3s2)COc2ccccc2O1 (stereo not given)	inactive: 93%
CCOc1ccc(C2=NCC(CBr)S2)cc1 (stereo not given)	inactive: 96%
CC(C)(C)C(=O)NC(Sc1ccccc1)C(Cl)(Cl)Cl (stereo not given)	inactive: 97%
COC(=O)c1cc2c(s1)N=C(c1ccccc1)N(C)P2(=O)N1CCOCC1 (stereo not given)	inactive: 94%
CC(=O)NC(SC(=S)N(CC(C)C)CC(C)C)C(Cl)(Cl)Cl (stereo not given)	inactive: 94%
Cc1ccc(OP(=O)(Nc2ccccn2)Oc2ccc(C)cc2)cc1	inactive: 94%
CCC(=O)N1C2C3N(C(=O)CC)C1C1N(C(=O)CC)C(C(N1C(=O)CC)N3C(=O)CC)N2C(=O)CC	inactive: 100%
O=c1c2cc([N+](=O)[O-])ccc2[nH]c2c([N+](=O)[O-])cc([N+](=O)[O-])cc12	inactive: 94%

SMILES	GTP binding activity
CCNC(=S)/N=C(\N)N[N+](=O)[O-]	inactive: 94%
O=C(NC1CCS(=O)(=O)C1)NP(=S)(Oc1ccccc1)Oc1ccccc1 (stereo not given)	inactive: 95%
c1ccc(-c2nn[nH]n2)c(-c2nn[nH]n2)c1	inactive: 97%
CCOC(=O)NC(Sc1ccccc1)C(Cl)(Cl)Cl (stereo not given)	inactive: 98%
CCN(N=Nc1nonc1N)c1nonc1N	inactive: 100%
Cc1cc(SC(NC(=O)c2ccc(F)cc2)C(Cl)(Cl)Cl)ncn1 (stereo not given)	inactive: 97%
CCOP(=O)(Nc1ccccc1)OCC	inactive: 105%
CC(C)CC(=O)NC(Sc1ccc(Cl)cc1)C(Cl)(Cl)Cl (stereo not given)	inactive: 100%
Oc1ccccc1CNc1ccccn1	inactive: 100%
O=C(NC(Sc1ccncn1)C(Cl)(Cl)Cl)c1ccccc1 (stereo not given)	inactive: 97%
Cc1c2non([O-])c-2c(C)[n+](=O)[n+]1[O-]	inactive: 97%
NC(=O)c1cc([N+](=O)[O-])cc([N+](=O)[O-])c1N	inactive: 98%
Cc1ccc(N/C(=N/P(=O)(N2CCOCC2)N2CCOCC2)N2CCOCC2)cc1	inactive: 97%
CN1CCCC(OC(=O)C(c2ccccc2)c2ccccc2)C1 (stereo not given)	inactive: 100%
Clc1ccc(Cl)c(NC2=NCC(CBr)S2)c1 (stereo not given)	inactive: 95%
CCN(/C(=N/P(=O)(N1CCOCC1)N1CCOCC1)N1CCOCC1)c1ccc(OC)cc1	inactive: 101%
CN(C)C(=O)OCCc1n(C)cc[n+]1C	inactive: 99%
CC1CCN(C(=O)Oc2c(Cl)cc(Cl)c3cccnc23)CC1	inactive: 99%
COc1ccc(C2=NCC(CBr)S2)cc1 (stereo not given)	inactive: 97%
O=[N+]([O-])c1cccc2n[nH]nc12	inactive: 106%
CC(=O)N1C2C3N(C(C)=O)C1C1N(C(C)=O)C(C(N1C(C)=O)N3C(C)=O)N2C(C)=O	inactive: 95%
Cc1ccc(NP(=O)(Oc2ccccc2)Oc2ccccc2)nc1	inactive: 99%
CCc1nc2c(n1)c1c(non1O)c1c2no[n+]1[O-]	inactive: 95%
O=[N+]([O-])c1cc([N+](=O)[O-])c(CCNc2ccccc2)c([N+](=O)[O-])c1	inactive: 99%
O=[N+]([O-])c1ncn(CCn2ncnc2[N+](=O)[O-])n1	inactive: 96%
